Measured values: patent US10214546B2, “Btk inhibitors” (MERCK SHARP & DOHME CORP., priority 2014, dated 2019)

The chains behind the UniProt entries cited, without tags or fusion partners. Where a name states a change or a piece, a line headed by the entry shows the natural chain unless it says otherwise.
UniProt Q06187: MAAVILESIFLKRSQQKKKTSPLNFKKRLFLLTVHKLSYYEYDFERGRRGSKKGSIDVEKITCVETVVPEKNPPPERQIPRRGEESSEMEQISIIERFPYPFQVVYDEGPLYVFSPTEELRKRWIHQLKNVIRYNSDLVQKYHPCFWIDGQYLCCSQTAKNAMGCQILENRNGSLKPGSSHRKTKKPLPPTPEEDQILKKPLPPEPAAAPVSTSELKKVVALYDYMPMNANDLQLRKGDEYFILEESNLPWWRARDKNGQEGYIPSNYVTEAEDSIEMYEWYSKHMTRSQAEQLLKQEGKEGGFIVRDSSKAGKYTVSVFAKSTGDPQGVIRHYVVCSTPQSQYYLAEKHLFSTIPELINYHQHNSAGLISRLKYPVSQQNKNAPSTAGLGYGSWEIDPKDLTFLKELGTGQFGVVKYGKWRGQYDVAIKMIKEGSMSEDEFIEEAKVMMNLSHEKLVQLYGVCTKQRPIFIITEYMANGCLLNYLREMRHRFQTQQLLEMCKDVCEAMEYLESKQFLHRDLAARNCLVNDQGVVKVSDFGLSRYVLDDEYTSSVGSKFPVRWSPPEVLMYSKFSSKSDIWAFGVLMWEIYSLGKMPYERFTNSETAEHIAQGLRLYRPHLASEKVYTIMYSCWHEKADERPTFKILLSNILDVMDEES

Target: BTK enzyme (recombinant full-length BTK, hBTK) (Homo sapiens (Human), UniProt Q06187)
Assay: BTK enzymatic activity LANCE TR-FRET assay
Format: biochemical
Conditions: 50 pM hBTK, 25 μM ATP, 2 μM biotin-A5-peptide; compound range 1 μM to 0.017 nM; read-out: BTK binding IC50
Method: Btk Enzyme Activity Assay Methods
BTK enzymatic activity was determined with the LANCE (Lanthanide Chelate Excite) TR-FRET (Time-resolved fluorescence resonance energy transfer) assay. […] To each well of a black non-binding surface Corning 384-well microplate (Corning Catalog #3820), 5 nL of compound (2000 fold dilution in final assay volume of 10 μL) was dispensed, followed by the addition of 7.5 μL of 1× kinase buffer (50 mM Hepes 7.5, 10 mM MgCl2, 0.01% Brij-35, 1 mM EGTA, 0.05% BSA & 1 mM DTT) containing 5.09 pg/μL (66.67 pM) of BTK enzyme (recombinant protein from baculovirus-transfected Sf9 cells: full-length BTK, 6HIS-tag cleaved). […] After 60 minutes incubation with detection reagents, reaction plates were read on a PerkinElmer EnVision plate reader using standard TR-FRET protocol. […] Fluorescence intensity at both 665 nm (acceptor) and 615 nm (donor) are measured and a TR-FRET ratio calculated for each well (acceptor intensity/donor intensity). IC50 values were determined by 4 parameter robust fit of TR-FRET ratio values vs. (Log10) compound concentrations.
The following Table 4 provides specific IC50 values for all the examples. The IC50 values set forth below were determined according to Assay method described above.

IC50: 0.54 nM
SMILES: COc1cc([C@@](O)(c2ccccc2)C(F)(F)F)ccc1-c1nc([C@@H]2CC[C@H]3CCC(=O)N3C2)n2ccnc(N)c12 [Example 33, (6R,8aS)-6-(8-amino-1-{2-methoxy-4-[(1S)-2,2,2-trifluoro-1-hydroxy-1-phenylethyl]phenyl}imidazo[1,5-a]pyrazin-3-yl)hexahydroindolizin-3(2H)-one]
